The numbers were not newly measured in PubChem BioAssay AID1811 (Shanghai Institute of Organic Chemistry, 2009), which cites them from elsewhere.

The list shows a part of the results. Active and inactive are the calls of the source. Where no limit is named, active and inactive come without a cut-off here.

The test system of this series is dodecin. The experiment in a line: PubChem AID 1811. The settings on record: PDB complex binding affinities from literature.

For the molecule `Cc1cc2nc3[nH]c(=O)[nH]c(=O)c3nc2cc1C`, the result was active. As for `Cc1cc2nc3c(=O)[nH]c(=O)nc-3n(C[C@H](O)[C@H](O)[C@H](O)CO)c2cc1C`, the outcome was active.
